Bioassay records deposited in PubChem by ICCB-Longwood Screening Facility, Harvard Medical School.
A selection: hits, their analogues and other compounds. The true share with any hit is near 0.43%.
HCMV UL50-53 inh – inhibitors of HCMV UL50-UL53 interaction, biochemical, HTRF; HCMV UL50-UL53 nuclear egress complex (human cytomegalovirus); normalized percent inhibition; inhibition, % (test concentration not listed); hit rate 0.15% among 190,000; AID 1918969, 2023; in the data active = inhibition above about 27%, passing the limit was not always enough
GIV Gai3 FP – GIV-Galpha-i interaction inhibition; AID 1224905; 210,000 tested, 0.42% active; Galpha-i3/FITC-GIV peptide fluorescence polarization, 90 min; stronger effect = lower value; scaled: aluminum fluoride 0%, vehicle 100%; percent of control (FP), % (concentration not given with the values);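 active = replicate mean at 85% of control or lower, very high polarization wells dropped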;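 also: wells of about 15 µL received 100 nL stock; the first replicate is given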
An asterisk follows results filed as active; . = no result given.

SMILES	HCMV UL50-53 inh	GIV Gai3 FP
O=S(=O)(/N=C1\C=C2N(CCO)CCOC2(O)c2ccccc21)c1ccc(F)cc1 (configuration not stated)	40*	96
O=S(=O)(/N=C1\C=C2N(CCO)CCOC2(O)c2ccccc21)c1ccccc1 (configuration not stated)	.	95
Cc1nn(C(C)C)c(C)c1S(=O)(=O)N1CCN(C(=O)C2CC2)CC1	7	112
Cc1ccc2snc(C(=O)N3CCN(C(=O)c4ccc(F)cc4)CC3)c2c1	-28	101
Cc1ccc(NC(=O)CSc2nc3c(oc4ccccc43)c(=O)n2Cc2ccc(F)cc2)c(C)c1	.	109
COc1ccc(C)cc1NC(=O)CSc1nc2c(sc3ncccc32)c(=O)n1Cc1ccc(F)cc1	55*	102
CCN(CC)CCn1c(SCC(=O)Nc2cccc(OC)c2)nc2c(sc3ccccc32)c1=O	.	103
COc1cccc(NC(=O)CSc2nc3c(sc4ncccc43)c(=O)n2Cc2ccc(C)cc2)c1	79*	100
Cc1ccc(NC(=O)Cn2cc(-c3nnc(CN4CCCCC4)o3)c3ccccc32)cc1Cl	.	104
O=C(NCc1ccncc1)C1CC(=O)N(CCc2c[nH]c3ccc(F)cc23)C1 (configuration not stated)	-1	103
COc1ccc(/C=C2\C=C(c3ccccc3)N(c3ccccc3)C2=O)cc1Br	.	115
COc1ccc(/C=C2\C=C(c3ccccc3)N(c3ccc(C)c(C)c3)C2=O)cc1Br	.	64*
COC(=O)CC1(C)NN=C(c2ccccc2)S1 (configuration not stated)	-3	98
CCOC(=O)c1[nH]c(CSc2nnc3ccccn23)c(C(=O)OCC)c1C	-22	.
CCOC(=O)c1[nH]c(CSc2cccc[n+]2[O-])c(C(=O)OCC)c1C	62*	.
COC(=O)c1cc(S(=O)(=O)N2CCCC2C(=O)Nc2nc3ccc(OC)cc3s2)cn1C (configuration not stated)	8	99
O=C(O)CN1C(=O)/C(=C\c2ccc(O)cc2)SC1=S	-124	196
CN(C)c1ccc(/C=C2/SC(=S)N(CC(=O)O)C2=O)cc1	-20	-61*
CC(Sc1nc2ccccc2c(=O)n1C)C(=O)Nc1ccc2c(c1)OCCO2 (configuration not stated)	34*	.
Cc1ccccc1NC(=O)C(C)Sc1nc2ccccc2c(=O)n1C (configuration not stated)	-17	100
Cc1cc(O)c(CN2CCN(C)CC2)c2oc(=O)c3ccccc3c12	-26	.
Cc1cc(C)c(C#N)c(N2CCCC2)n1	0	109
N#Cc1c(N2CCCC2)nc(N)c2c(N)nc(N3CCCC3)cc12	97*	.
CC(=O)Nc1ccc(N=Cc2c(C)[nH]n(-c3ccc(C)c(C)c3)c2=O)cc1	.	117
Cc1ccc(-n2[nH]c(=O)c(N=O)c2O)cc1C	.	85*
Cc1nc2sc3c(c2c(-c2cccs2)c1C(N)=O)CCCC3	4	.
CCn1ccc2cc(S(=O)(=O)N3CCCC(C(=O)N4CCCC(C)C4)C3)ccc21 (configuration not stated)	-5	99
O=S(=O)(NCc1nc2ccccc2[nH]1)c1ccc(Cl)cc1	-19	.
COc1ccc(NC(=O)Cn2c(=O)c(C(F)(F)F)nc3ccccc32)cc1	-5	100
CN(C)/C=C/C=C1/CCc2ccccc2C1=O	-28	-3.8*

3 structures from above, ordered by length of the SMILES, falling.
SMILES	HCMV UL50-53 inh	GIV Gai3 FP
Cc1cc(O)c(CN2CCN(C)CC2)c2oc(=O)c3ccccc3c12	-26	.
CN(C)c1ccc(/C=C2/SC(=S)N(CC(=O)O)C2=O)cc1	-20	-61*
O=S(=O)(NCc1nc2ccccc2[nH]1)c1ccc(Cl)cc1	-19	.

The list continues.
SMILES	HCMV UL50-53 inh	GIV Gai3 FP
CCN(CC)c1ccc(/C=C2\CCc3ccccc3C2=O)cc1	.	253
CCCCCCc1cc2cc(-c3nnc(-c4ccc(C)cc4)o3)c(=O)oc2cc1O	3	7.6*
CCCCCCc1cc2cc(-c3csc(Nc4ccc(Cl)cc4Cl)n3)c(=O)oc2cc1O	-23	196
O=C(COCc1cc(-c2ccc3c(c2)OCO3)on1)Nc1ccc(Br)cn1	2	100
Cc1cccc(C(=O)Nc2ccccc2C(=O)N2CCOCC2)c1	-9	106
Cc1ccc(CNC(=O)c2cnc(N3CCCC3)nc2)cc1	-30	102
COc1ccc(NC(=O)CCCn2c(=O)c3cccn3c3ccc(F)cc32)cc1OC	-12	98
CCOC(=O)c1ccc2c(c1)N(CCCS(=O)(=O)O)/C(=C/C=C/c1n(CCCS(=O)(=O)[O-])c3cc(C(=O)OCC)ccc3[n+]1CC)N2CC	.	-62*
CCOC(=O)c1ccc2c(c1)n(CCCS(=O)(=O)[O-])c(/C=C/C=C1\N(CC)c3cc(Cl)c(Cl)cc3N1CCOc1ccccc1)[n+]2CC	.	112
COC(=O)c1ccc(-n2c(C)cc3ccccc32)s1	-7	106
Cc1cc2ccccc2n1-c1ccc(C(=O)NC2CCCC2)s1	56*	108
CCCCCCCNC(=O)C1CCN(c2ccc(-c3ccccc3)nn2)CC1	31*	98
CC(C)CNC(=O)C1CCN(c2ccc(-c3ccccc3)nn2)CC1	-40	103
COc1cccc2c1N=C1OC=CC1C2OC (configuration not stated)	54*	.
O=C(O)COc1ccc2c(c1)C(=NO)c1cc(OCC(=O)O)ccc1-2	.	106

Exported field by field: part of the list above.
Cc1ccc(CNC(=O)c2cnc(N3CCCC3)nc2)cc1
  HCMV UL50-53 inh: -30
  GIV Gai3 FP: 102

Cc1cc2ccccc2n1-c1ccc(C(=O)NC2CCCC2)s1
  HCMV UL50-53 inh: 56*
  GIV Gai3 FP: 108

More entries.
SMILES	HCMV UL50-53 inh	GIV Gai3 FP
O=C(O)COc1ccc2c(c1)C(=O)c1cc(OCC(=O)O)ccc1-2	-57	84*
CCOc1ccc(N=C2SC(C(=O)Nc3ccccc3OC)CC(=O)N2Cc2ccc(OC)cc2)cc1 (configuration not stated)	-12	104
Cn1c(=O)n(CCC(=O)N2CCCC2)c(=O)c2cc(S(=O)(=O)N3CCCC3)ccc21	.	110
CC1CN(S(=O)(=O)c2ccc(C(=O)Nc3ccccc3-c3nc4ccccc4s3)cc2)CC(C)O1 (configuration not stated)	10	99
Cc1ccc(C(=O)N/N=C/c2c[nH]c3ccccc23)cn1	-56	104
Cc1ccc(C(=O)NC2(O)C(=O)c3ccccc3C2=O)cn1	54*	94
O=C(c1cc2c(=O)[nH]c3ccccc3c2s1)N1CCN(c2ccc(F)cc2)CC1	-23	100
O=C(c1cc2c(=O)[nH]c3ccccc3c2s1)N1CCCC1	.	58*
Fc1ccccc1-c1nnc2ccc(C(F)(F)F)cn12	57*	.
O=C(O)c1ccccc1-c1nnc2c(Cl)cc(C(F)(F)F)cn12	-22	99
CCCN1C(=O)/C(=C/c2c(NCC)nc3ccccn3c2=O)SC1=S	-24	-75*
C=CCNc1nc2ccccn2c(=O)c1/C=C1\SC(=S)N(C)C1=O	-36	-24*
C=CCNc1nc2ccccn2c(=O)c1/C=C1\SC(=S)N(Cc2ccc3c(c2)OCO3)C1=O	.	-27*
CN1C(=O)/C(=C/c2c(N3CCSCC3)nc3ccccn3c2=O)SC1=S	-4	186
C=CCNc1nc2ccccn2c(=O)c1/C=C1\SC(=S)N(CCOC)C1=O	-33	-75*

Taken from above.
O=C(O)COc1ccc2c(c1)C(=O)c1cc(OCC(=O)O)ccc1-2 in HCMV UL50-53 inh is listed with -57
CCCN1C(=O)/C(=C/c2c(NCC)nc3ccccn3c2=O)SC1=S in GIV Gai3 FP is listed with -75*

Carrying on.
SMILES	HCMV UL50-53 inh	GIV Gai3 FP
O=C1/C(=C/c2c(NCCCn3ccnc3)nc3ccccn3c2=O)SC(=S)N1CC1CCCO1 (configuration not stated)	.	260
O=C1/C(=C/c2c(NCc3ccccc3)nc3ccccn3c2=O)SC(=S)N1CC1CCCO1 (configuration not stated)	.	264
O=C1/C(=C/c2c(NCC3CCCO3)nc3ccccn3c2=O)SC(=S)N1C1CCCCC1 (configuration not stated)	.	315
O=C(NCC1CCCO1)c1cc(-c2cccnc2)nc2ccc(Br)cc12 (configuration not stated)	-69	125
CCN(CC)C(=O)COc1cc(=O)n(CC)c2ccccc12	.	103
